According to patent publication US8012504B2, “Sustained release of guaifenesin combination drugs” (priority 2000, dated 2011):

Assay: Example 16: interaction potential, Mucinex and Sudafed 12 Hour alone or together, 3-way crossover
Format: in vivo, human
Conditions: mean; 120 mg along with 1200 mg guaifenesin compared to 120 mg pseudoephedrine alone
Description: In another study drug interaction potential for combination drugs was examined. The interaction potential for 1200 mg guaifenesin and 120 mg Pseudoephedrine Hydrochloride was compared to reference in an open label, single dose, randomized, 3-way crossover study using 36 subjects.
Group B received a 120 mg controlled release pseudoephedrine product (Sudafed® 12 Hour) with 240 mL of room-temperature water after an overnight fast.

CN[C@@H](C)[C@@H](O)c1ccccc1 [Pseudoephedrine, Pseudoephedrine hydrochloride]
Ratio of pseudoephedrine Clearance: 103.99% | Ratio of pseudoephedrine Half-life: 103.30%

Counter-ions that a name gives are not always drawn.
